Data as given in patent US20170157260A1, “Glycosylated Polypeptide and Drug Composition Containing said Polypeptide” (Glytech, Inc., priority 2011, published 2017).
Read-outs that look alike come from different tables or passages of the source.

Amino acid sequences for entries named in this document (tags omitted). A change or cut given only in a name is not applied to a line headed by its entry.
UniProt P30872: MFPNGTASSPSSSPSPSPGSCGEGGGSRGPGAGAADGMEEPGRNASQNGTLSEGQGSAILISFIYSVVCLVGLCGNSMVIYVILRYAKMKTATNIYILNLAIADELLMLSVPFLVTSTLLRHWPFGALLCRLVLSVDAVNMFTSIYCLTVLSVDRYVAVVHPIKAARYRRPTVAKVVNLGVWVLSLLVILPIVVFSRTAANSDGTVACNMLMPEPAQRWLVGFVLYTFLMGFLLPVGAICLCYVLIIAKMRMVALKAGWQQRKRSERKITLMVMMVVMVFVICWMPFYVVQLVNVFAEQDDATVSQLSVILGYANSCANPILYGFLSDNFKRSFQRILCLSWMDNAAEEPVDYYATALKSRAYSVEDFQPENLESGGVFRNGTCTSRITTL
UniProt P31391: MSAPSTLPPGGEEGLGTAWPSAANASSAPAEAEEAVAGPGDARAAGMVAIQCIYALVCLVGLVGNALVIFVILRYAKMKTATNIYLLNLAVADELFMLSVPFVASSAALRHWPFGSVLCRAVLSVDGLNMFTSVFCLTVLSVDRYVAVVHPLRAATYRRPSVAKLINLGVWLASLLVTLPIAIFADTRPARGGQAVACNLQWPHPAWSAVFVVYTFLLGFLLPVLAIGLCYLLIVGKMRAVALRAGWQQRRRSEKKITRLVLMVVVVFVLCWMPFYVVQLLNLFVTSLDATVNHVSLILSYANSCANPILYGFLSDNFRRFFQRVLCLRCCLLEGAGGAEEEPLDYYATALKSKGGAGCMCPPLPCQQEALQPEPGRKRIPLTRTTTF
UniProt P30874: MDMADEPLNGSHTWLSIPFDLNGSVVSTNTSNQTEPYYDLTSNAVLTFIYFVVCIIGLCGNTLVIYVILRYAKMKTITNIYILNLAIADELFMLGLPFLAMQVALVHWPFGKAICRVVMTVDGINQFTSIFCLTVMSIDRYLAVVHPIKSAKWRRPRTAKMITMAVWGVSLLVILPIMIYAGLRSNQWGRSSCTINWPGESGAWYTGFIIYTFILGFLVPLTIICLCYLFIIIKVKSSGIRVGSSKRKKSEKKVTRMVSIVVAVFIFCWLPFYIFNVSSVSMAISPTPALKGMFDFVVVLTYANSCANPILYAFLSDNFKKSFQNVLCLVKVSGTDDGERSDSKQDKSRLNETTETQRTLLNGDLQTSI
UniProt P32745: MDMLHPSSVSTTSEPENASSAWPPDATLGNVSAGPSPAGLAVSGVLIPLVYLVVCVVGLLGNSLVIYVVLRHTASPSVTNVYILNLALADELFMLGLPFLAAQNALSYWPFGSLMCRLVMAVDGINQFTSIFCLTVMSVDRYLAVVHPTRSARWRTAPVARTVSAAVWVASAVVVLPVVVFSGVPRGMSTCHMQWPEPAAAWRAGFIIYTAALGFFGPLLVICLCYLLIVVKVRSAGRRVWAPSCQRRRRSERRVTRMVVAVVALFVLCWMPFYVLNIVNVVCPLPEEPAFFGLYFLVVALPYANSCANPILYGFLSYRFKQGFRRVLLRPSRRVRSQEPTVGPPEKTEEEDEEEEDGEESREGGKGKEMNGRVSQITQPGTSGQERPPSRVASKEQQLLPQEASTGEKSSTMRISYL
UniProt P35346: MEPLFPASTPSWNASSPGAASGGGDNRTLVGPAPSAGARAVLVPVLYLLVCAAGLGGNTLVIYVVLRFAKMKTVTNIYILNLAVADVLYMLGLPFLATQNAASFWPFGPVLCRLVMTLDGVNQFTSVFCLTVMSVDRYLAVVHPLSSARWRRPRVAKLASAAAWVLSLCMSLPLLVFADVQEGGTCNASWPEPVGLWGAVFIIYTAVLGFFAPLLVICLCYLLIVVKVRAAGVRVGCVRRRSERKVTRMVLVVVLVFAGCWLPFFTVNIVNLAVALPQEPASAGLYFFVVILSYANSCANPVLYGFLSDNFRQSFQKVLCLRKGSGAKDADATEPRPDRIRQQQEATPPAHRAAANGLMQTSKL

Legend:
[1] = molecular target: T1, SSTR1 (Homo sapiens, UniProt P30872); experiment: Agonist activity evaluation (cAMP production suppression), SSTR1 receptor expression cells; type: cell-based
[2] = molecular target: SSTR4 (Homo sapiens, UniProt P31391); experiment: Agonist activity evaluation (cAMP production suppression), SSTR4 receptor expression cells; type: cell-based
[3] = molecular target: T2, SSTR2 (Homo sapiens, UniProt P30874); experiment: Agonist activity evaluation (cAMP production suppression), SSTR2 receptor expression cells; type: cell-based; set-up: host or cells: CHO-K1 cells
[4] = molecular target: T3, SSTR3 (Homo sapiens, UniProt P32745); experiment: Agonist activity evaluation (cAMP production suppression), SSTR3 receptor expression cells; type: cell-based; set-up: host or cells: CHO-K1 cells
[5] = molecular target: T4, SSTR5 (Homo sapiens, UniProt P35346); experiment: Agonist activity evaluation (cAMP production suppression), SSTR5 receptor expression cells; type: cell-based; set-up: host or cells: CHO-K1 cells
[6] = Pharmacokinetics test with rats (intravenous and subcutaneous administration); conditions: rats; for BA: subcutaneous vs intravenous
[7] = molecular target: T1, SSTR1; experiment: Competitive binding assay, SSTR1; conditions: Table 3B, Example 67-2, competitive binding assay; for IC50: read-out: SSTR1 IC50; for Ki: read-out: SSTR1 Ki
[8] = molecular target: T2, SSTR2; experiment: Competitive binding assay, SSTR2; conditions: Table 3B, Example 67-2, competitive binding assay; for IC50: read-out: SSTR2 IC50; for Ki: read-out: SSTR2 Ki
[9] = molecular target: T3, SSTR3; experiment: Competitive binding assay, SSTR3; conditions: Table 3B, Example 67-2, competitive binding assay; for IC50: read-out: SSTR3 IC50; for Ki: read-out: SSTR3 Ki
[10] = molecular target: T4, SSTR5; experiment: Competitive binding assay, SSTR5; conditions: Table 3B, Example 67-2, competitive binding assay; for IC50: read-out: SSTR5 IC50; for Ki: read-out: SSTR5 Ki
[11] = test system: growth hormone (GH) production; experiment: GH production suppression test with rats; type: in vivo; conditions: Table 8 (Example 87), dose 10 nmol/kg, vehicle 1012
[12] = Table 3E, Example 67-4, read-out: IC50 of the agonist activity, SSTR1
[13] = Table 3E, Example 67-4, read-out: IC50 of the agonist activity, SSTR4
[14] = Table 3E, Example 67-4, read-out: IC50 of the agonist activity, SSTR2
[15] = Table 3E, Example 67-4, read-out: IC50 of the agonist activity, SSTR3
[16] = Table 3E, Example 67-4, read-out: IC50 of the agonist activity, SSTR5
[17] = intravenous administration, Table 5A (Examples 69-72), spread in the line below
[18] = intravenous administration, Tables 5B-5F (Examples 73-84)
[19] = subcutaneous administration, Table 5A (Examples 69-72), spread in the line below
[20] = subcutaneous administration, Tables 5B-5F (Examples 73-84)
[21] = Examples 69-72 (text on Table 5A)
[22] = Table 3D, Example 67-3, read-out: IC50 of cAMP production suppressing action (agonist activity), SSTR1
[23] = Table 3D, Example 67-3, read-out: IC50 of cAMP production suppressing action (agonist activity), SSTR4
[24] = Table 3D, Example 67-3, read-out: IC50 of cAMP production suppressing action (agonist activity), SSTR2
[25] = Table 3D, Example 67-3, read-out: IC50 of cAMP production suppressing action (agonist activity), SSTR3
[26] = Table 3D, Example 67-3, read-out: IC50 of cAMP production suppressing action (agonist activity), SSTR5

Substance | IC50 [1, 12] | IC50 [2, 13] | IC50 [3, 14] | IC50 [4, 15] | IC50 [5, 16] | Intravenous administration AUC [6, 18] | Intravenous administration C0 [6, 18] | Intravenous administration MRT [6, 18] | Intravenous administration T1/2 [6, 18] | Subcutaneous administration AUC [6, 20] | Subcutaneous administration Cmax [6, 20] | Subcutaneous administration MRT [6, 20] | Subcutaneous administration T1/2 [6, 20] | BA ([6]; Tables 5B-5F (Examples 73-84)) | IC50 [7] | Ki [7] | IC50 [8] | Ki [8] | IC50 [9] | Ki [9] | further results
S1-3C(disialo)-SRIF28 [Example 24] | 7500 pM | 360 pM | 190 pM | 790 pM | 970 pM | 5834 nM·min | 1083 nM | 23.8 min | 39.5 min | 4174 nM·min | 30.7 nM | 115 min | 79.3 min | 72% |  |  |  |  |  |  | extension of t1/2 compared to the non-glycosylated form (SRIF28 or SRIF14) ([6]; administered intravenously): 30 folds; increase of AUC compared to the non-glycosylated form (SRIF28 or SRIF14) ([6]; administered intravenously): 12 folds; Intravenous administration AUC [6, 17]: 5660 nM·min; Intravenous administration C0 [6, 17]: 1061 nM; Intravenous administration MRT [6, 17]: 24.0 min; Intravenous administration t1/2 [6, 17]: 38.5 min; Subcutaneous administration AUC [6, 19]: 3884 nM·min; Subcutaneous administration Cmax [6, 19]: 27.5 nM; Subcutaneous administration MRT [6, 19]: 126 min; Subcutaneous administration t1/2 [6, 19]: 87.7 min; BA ([6]; BA=(AUC(sc)/Dose(sc))/(AUC(iv)/Dose(iv)), Table 5A): 69%; AUC for intravenous administration [6, 21]: 5660 nM·min; bioavailability (BA), subcutaneous administration [6, 21]: 69%
S1C (GlcNAc)-SRIF28 [Example 53] | 1400 pM | 49 pM | 40 pM | 140 pM | 31 pM | 690 nM·min | 666 nM | 3.00 min | 1.80 min | 63 nM·min | 7.10 nM | 7.90 min | 5.90 min | 9% | 5910 pM | 4890 pM | 225 pM | 120 pM | 1650 pM | 555 pM | IC50 [10]: 1150 pM; Ki [10]: 650 pM
S1C(diGlcNAc)-SRIF28 [Example 50] | 1200 pM | 50 pM | 45 pM | 140 pM | 33 pM | 3588 nM·min | 495 nM | 12.3 min | 10.5 min | 445 nM·min | 13.2 nM | 25.7 min | 16.5 min | 12% | 5040 pM | 4170 pM | 190 pM | 100 pM | 2020 pM | 690 pM | IC50 [10]: 1450 pM; Ki [10]: 820 pM
S1C(diMan)-SRIF28 [Example 51] | 1200 pM | 43 pM | 35 pM | 110 pM | 37 pM | 1445 nM·min | 423 nM | 5.20 min | 5.50 min | 124 nM·min | 7.30 nM | 13.9 min | 9.10 min | 9% | 5060 pM | 4180 pM | 140 pM | 75 pM | 1320 pM | 450 pM | IC50 [10]: 550 pM; Ki [10]: 310 pM
S1C(disialo(amide))-SRIF28 [Example 58] |  |  |  |  |  | 5814 nM·min | 1048 nM | 12.6 min | 18.0 min | 961 nM·min | 19.1 nM | 42.5 min | 30.0 min | 17% | 5090 pM | 4210 pM | 207 pM | 110 pM | 1530 pM | 522 pM | IC50 [1, 22]: 2400 ± 1700 pM; IC50 [2, 23]: 43 ± 23 pM; GH [11]: 14 ng/mL; IC50 [3, 24]: 55 ± 13 pM; IC50 [4, 25]: 140 ± 60 pM; IC50 [5, 26]: 43 ± 15 pM; Ki [10]: 1470 pM
S1C(disialo(aminoethylamide))-SRIF28 [Example 57] |  |  |  |  |  | 3473 nM·min | 746 nM | 12.1 min | 18.6 min | 284 nM·min | 9.60 nM | 33.2 min | 27.1 min | 8% |  | 1940 pM | 101 pM | 53.6 pM | 766 pM | 264 pM | IC50 [1, 22]: 1000 ± 900 pM; IC50 [2, 23]: 85 ± 11 pM; GH [11]: 314 ng/mL; IC50 [3, 24]: 100 ± 20 pM; IC50 [4, 25]: 300 ± 150 pM; IC50 [5, 26]: 81 ± 19 pM; IC50 [10]: 2080 pM; AUC for subcutaneous administration as fraction of S1C(disialo)-SRIF28 ([6]; subcutaneous): 1/7
S1C(tetrasialo)-SRIF28 [Example 56] | 2800 pM | 81 pM | 130 pM | 250 pM | 110 pM |  |  |  |  |  |  |  |  |  | 17300 pM | 14200 pM | 1120 pM | 597 pM | 5630 pM | 1930 pM | Ki [10]: 1200 pM
